## scFv variants of Ab-14 (light chain) against a SARS-CoV-2 spike peptide

The measurements come from Li et al. 2023 (doi:10.1038/s41467-023-39022-2) through the FLAb antibody collection.

Target peptide (SARS-CoV-2 spike, HR2 region): PDVDLGDISGINAS

Parent: Ab-14, a human scFv built as VH, a 15-residue (Gly4Ser)3 linker, VL. Only the CDRs of the light chain vary.
VH: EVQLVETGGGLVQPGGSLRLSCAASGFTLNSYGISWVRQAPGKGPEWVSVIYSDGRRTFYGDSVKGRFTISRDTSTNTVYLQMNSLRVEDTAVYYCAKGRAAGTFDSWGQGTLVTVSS
VL: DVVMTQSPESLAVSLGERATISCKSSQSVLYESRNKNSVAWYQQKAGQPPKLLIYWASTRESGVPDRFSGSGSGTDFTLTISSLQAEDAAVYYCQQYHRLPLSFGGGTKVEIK

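The parent was found by panning a naive human phage display library on the peptide. Designed CDR sequences, proposed from the first random library and measured here. Group labels follow the data file (Ctrl: baseline library sampled from a position-specific scoring matrix, with some repeated check sequences; Rand: our label for a block that the file lists under HC and that is probably the random mutants of the ten best first-round binders; En: ensemble of fine-tuned language models; GP: Gaussian process model; HC: hill climbing; Gen: genetic algorithm; Gibbs: Gibbs sampling; a sequence that several methods proposed may carry one label only). AlphaSeq pools MATa yeast showing the antibodies with MATalpha yeast showing the peptide. Binding brings cells together so that they mate, and sequencing counts the barcode pairs among the diploids. Read counts were normalised to the haploid input and turned into Kd by a linear fit to BCL2-family pairs of known affinity, for each replicate. The assay was run in six technical replicates.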

Sequences are complete VL domains. Values are log10 of the apparent Kd in nM; lower means stronger binding. A mean of the replicates is given; it leaves out those without a signal. A pair that was not seen in any replicate is written "nd"; this usually means weak binding, but a binder can also be missed. As a blank, each scFv also met three strains without target: over all light chain designs, 4% of these pairings were detected, typically at 2.64 and seldom below 1.59. A sequence measured in both rounds can read differently, since the two assays cover different ranges. Of ten entries with the parent sequence, four were seen in most replicates (averages 0.34 to 2.37), three in one and three in none, so single entries are noisy. The authors averaged sequences with at least three values out of six and counted those with two or fewer as poor binders.

{"VL": "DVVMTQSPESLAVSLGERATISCQMYPFEVAKGEGTNNVAWYQQKAGQPPKLLIYHVSVRALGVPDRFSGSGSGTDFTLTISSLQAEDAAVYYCQQYFRLPLVFGGGTKVEIK", "group": "En_Gibbs", "log10 Kd (nM), mean": "1.43", "seen in": "6/6"}
{"VL": "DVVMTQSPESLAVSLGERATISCKLMGSMLYEERNWNSVAWYQQKAGQPPKLLIYHASHRESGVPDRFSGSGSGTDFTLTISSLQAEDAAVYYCQQYHRLPLSFGGGTKVEIK", "group": "GP_Gibbs", "log10 Kd (nM), mean": "0.69", "seen in": "6/6"}
{"VL": "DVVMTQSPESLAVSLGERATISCKLSQSVLYEDRHKNSVAWYQQKAGQPPKLLIYGASKRFSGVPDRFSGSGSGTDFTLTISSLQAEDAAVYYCQQYHRLPLSFGGGTKVEIK", "group": "GP_Gibbs", "log10 Kd (nM), mean": "1.66", "seen in": "6/6"}
{"VL": "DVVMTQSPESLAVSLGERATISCKDSQSWLYESRNKNPVAWYQQKAGQPPKLLIYWASTRESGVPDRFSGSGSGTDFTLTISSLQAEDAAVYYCQYYHRLPLDFGGGTKVEIK", "group": "Ctrl", "log10 Kd (nM), mean": "0.55", "seen in": "1/6"}
{"VL": "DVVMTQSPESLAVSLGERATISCKLEQLVDYKDRNLNSVAWYQQKAGQPPKLLIYNASTRESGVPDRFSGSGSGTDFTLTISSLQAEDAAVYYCQQYHRLPLSFGGGTKVEIK", "group": "GP_Gibbs", "log10 Kd (nM), mean": "0.12", "seen in": "6/6"}
{"VL": "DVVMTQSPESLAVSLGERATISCKLSQSELYESRNKNSVAWYQQKAGQPPKLLIYNASTREWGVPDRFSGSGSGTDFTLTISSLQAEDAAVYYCQQYHRLPLSFGGGTKVEIK", "group": "GP_Gen", "log10 Kd (nM), mean": "-0.12", "seen in": "6/6"}
{"VL": "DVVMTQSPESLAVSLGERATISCMLSDTVMQGLYSRNSVAWYQQKAGQPPKLLIYQESTRAEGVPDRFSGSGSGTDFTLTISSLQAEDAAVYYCQQYHHLPLSFGGGTKVEIK", "group": "En_HC", "log10 Kd (nM), mean": "0.45", "seen in": "6/6"}
{"VL": "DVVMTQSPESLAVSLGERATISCKSSQSELYESGNKNSVAWYQQKAGQPPKLLIYHASTRESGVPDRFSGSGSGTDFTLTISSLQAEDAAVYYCQQYHRLPLSFGGGTKVEIK", "group": "GP_HC", "log10 Kd (nM), mean": "0.46", "seen in": "6/6"}
{"VL": "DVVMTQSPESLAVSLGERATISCKLSQSVLYESRNTNSVAWYQQKAGQPPKLLIYNASTRLSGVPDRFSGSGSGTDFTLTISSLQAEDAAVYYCQQYHRLPLSFGGGTKVEIK", "group": "GP_Gen", "log10 Kd (nM), mean": "-0.17", "seen in": "6/6"}
{"VL": "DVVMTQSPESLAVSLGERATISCKVSFQVWYSSRNKNSVAWYQQKAGQPPKLLIYDANTRESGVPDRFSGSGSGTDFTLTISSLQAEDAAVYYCQQYHRLPLSFGGGTKVEIK", "group": "GP_Gibbs", "log10 Kd (nM), mean": "0.51", "seen in": "6/6"}
{"VL": "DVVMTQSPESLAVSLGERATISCYLSQSVLYESRNKNSVAWYQQKAGQPPKLLIYNASTRESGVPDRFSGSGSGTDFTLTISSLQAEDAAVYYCQQYHRLPLIFGGGTKVEIK", "group": "GP_Gibbs", "log10 Kd (nM), mean": "0.12", "seen in": "6/6"}
{"VL": "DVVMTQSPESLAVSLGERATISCKIGATLNTLYEQKNNVAWYQQKAGQPPKLLIYDLVMRESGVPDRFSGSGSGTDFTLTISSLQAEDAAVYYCQQYHRLPLSFGGGTKVEIK", "group": "En_Gen", "log10 Kd (nM), mean": "0.78", "seen in": "6/6"}
{"VL": "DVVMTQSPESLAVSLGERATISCKSSQSFLYESRNKNSVAWYQQKAGQPPKLLIYGASTRESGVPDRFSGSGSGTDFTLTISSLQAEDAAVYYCQQYERLTLSFGGGTKVEIK", "group": "Rand", "log10 Kd (nM), mean": "nd", "seen in": "0/6"}
{"VL": "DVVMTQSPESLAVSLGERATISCKVLQSVGYEGRNKNSVAWYQQKAGQPPKLLIYHASTREDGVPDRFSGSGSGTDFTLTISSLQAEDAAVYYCQQYHRLPLSFGGGTKVEIK", "group": "GP_HC", "log10 Kd (nM), mean": "-0.02", "seen in": "6/6"}

2 of these entries, quoted again:

| VL | group | log10 Kd (nM), mean | seen in |
|---|---|---|---|
| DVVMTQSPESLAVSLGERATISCKSSQSELYESGNKNSVAWYQQKAGQPPKLLIYHASTRESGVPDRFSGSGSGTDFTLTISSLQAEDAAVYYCQQYHRLPLSFGGGTKVEIK | GP_HC | 0.46 | 6/6 |
| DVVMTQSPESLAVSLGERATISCKLEQLVDYKDRNLNSVAWYQQKAGQPPKLLIYNASTRESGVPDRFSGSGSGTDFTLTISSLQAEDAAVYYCQQYHRLPLSFGGGTKVEIK | GP_Gibbs | 0.12 | 6/6 |